AlphaSeq binding of Ab-14 light chain variants to a spike HR2 peptide

Target: peptide PDVDLGDISGINAS, taken from heptad repeat 2 (HR2) of SARS-CoV-2 spike.

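The starting antibody came from a phage panning campaign against this peptide. These sequences belong to a second round, designed from the earlier measurements on random variants of the parent. Group labels follow the data file (Ctrl: baseline library sampled from a position-specific scoring matrix, with some repeated check sequences; En: ensemble of fine-tuned language models; GP: Gaussian process model; HC: hill climbing; Gen: genetic algorithm; Gibbs: Gibbs sampling; a sequence that several methods proposed may carry one label only). AlphaSeq pools MATa yeast showing the antibodies with MATalpha yeast showing the peptide. Binding brings cells together so that they mate, and sequencing counts the barcode pairs among the diploids. Each replicate has its own calibration line, from reference interactions of the BCL2 family. There are six technical replicates.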

Parent: Ab-14, a human scFv built as VH, a (GGGGS)3 linker, VL. Only the CDRs of the light chain vary.
VH: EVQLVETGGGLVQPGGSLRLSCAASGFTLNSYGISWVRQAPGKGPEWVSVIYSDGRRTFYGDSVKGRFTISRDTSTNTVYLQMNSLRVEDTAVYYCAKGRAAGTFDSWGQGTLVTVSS
VL: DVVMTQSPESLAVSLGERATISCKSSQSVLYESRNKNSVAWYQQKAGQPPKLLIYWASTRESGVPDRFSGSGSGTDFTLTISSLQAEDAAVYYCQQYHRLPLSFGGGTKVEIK

Sequences are complete VL domains. Each Kd is an estimate from the mating assay, the geometric mean of the replicates in which the pair was seen; lower is stronger. Where no diploid with the target was found in any replicate, the entry reads "no signal": below detection, most likely a poor binder, though not proof of it. Nonspecific signal, from three strains lacking the peptide, appeared in 4% of pairings of all light chain designs, centred on 430 nM (5% of these signals below 38 nM); values are not corrected for it. The range of this assay differs from that of the first round, and the authors advise against merging the two. In the paper, a design with two or fewer of six values counts as a poor binder. The parent sequence was in this pool as ten entries: three were never detected, three once, and four in most replicates, with averages from 2.2 nM to 240 nM.

VL	group	Kd (apparent)	replicates with signal
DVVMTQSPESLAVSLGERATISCKSSQSELYESRNVNSVAWYQQKAGQPPKLLIYGASTRDSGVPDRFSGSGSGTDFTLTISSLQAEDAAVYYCQQYHRLPLSFGGGTKVEIK	GP_HC	1.5 nM	6 of 6
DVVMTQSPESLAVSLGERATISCMISQLYNMGTFAINSVAWYQQKAGQPPKLLIYQASLRNEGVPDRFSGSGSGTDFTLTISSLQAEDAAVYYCQQYDRLPLIFGGGTKVEIK	En_Gen	33 nM	6 of 6
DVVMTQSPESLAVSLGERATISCKLMYLVLYESRNKNSVAWYQQKAGQPPKLLIYNASTRLQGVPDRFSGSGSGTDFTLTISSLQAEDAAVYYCQQYHRLPLSFGGGTKVEIK	GP_Gibbs	7.2 nM	6 of 6
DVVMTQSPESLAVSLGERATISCIINLSPMDHQIHMDAIAWYQQKAGQPPKLLIYQEAIRNQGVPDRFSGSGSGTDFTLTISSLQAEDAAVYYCQQYARLPLSFGGGTKVEIK	En_Gibbs	10 nM	6 of 6
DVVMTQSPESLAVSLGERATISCKLVNFMNRGTHHTSNIAWYQQKAGQPPKLLIYDAQTRLDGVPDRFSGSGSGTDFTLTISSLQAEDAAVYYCQQYARLPLAFGGGTKVEIK	En_Gen	2.0 nM	6 of 6
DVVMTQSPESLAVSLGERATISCKFQQQDEYESRNKNSVAWYQQKAGQPPKLLIYNASTRSQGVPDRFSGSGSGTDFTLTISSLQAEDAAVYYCQQYHRLPLSFGGGTKVEIK	GP_Gibbs	1.3 nM	6 of 6
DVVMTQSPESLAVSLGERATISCKMEQGVLYESRNKNSVAWYQQKAGQPPKLLIYGASMRESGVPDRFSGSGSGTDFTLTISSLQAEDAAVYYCQQYHRLPLSFGGGTKVEIK	GP_HC	1.5 nM	6 of 6
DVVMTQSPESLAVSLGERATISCKHSQSVLYEWRNKNSVAWYQQKAGQPPKLLIYGASTRESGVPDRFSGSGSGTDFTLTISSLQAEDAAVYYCQQYHRLPLSFGGGTKVEIK	GP_HC	1.2 nM	6 of 6

Continued, with the values leading:

Kd (apparent)	replicates with signal	VL	group
1.8 nM	6 of 6	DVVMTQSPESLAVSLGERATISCKFSQSVQMESRNKNSVAWYQQKAGQPPKLLIYEASTRPSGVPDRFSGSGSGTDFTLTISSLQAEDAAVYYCQQYHRLPLSFGGGTKVEIK	Ctrl
2.4 nM	6 of 6	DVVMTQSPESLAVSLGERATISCTISQSLLMQTSHKNSVAWYQQKAGQPPKLLIYGEETRYSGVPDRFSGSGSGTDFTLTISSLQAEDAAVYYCQQYHRLPLSFGGGTKVEIK	En_HC
380 nM	3 of 6	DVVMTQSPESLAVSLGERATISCKSSQAVLYESANYNSVAWYQQKAGQPPKLLIYWASTRESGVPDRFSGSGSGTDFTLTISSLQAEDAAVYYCQQYHRLPLSFGGGTKVEIK	Ctrl
no signal	0 of 6	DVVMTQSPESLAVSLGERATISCMFEGYNTEGEANNNNVAWYQQKAGQPPKLLIYDHNCGERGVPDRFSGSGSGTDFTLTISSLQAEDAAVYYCQQYYRLPLAFGGGTKVEIK	En_Gibbs
14 nM	6 of 6	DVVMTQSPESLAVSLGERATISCALSGWEWAGNENINAVAWYQQKAGQPPKLLIYDRSALEWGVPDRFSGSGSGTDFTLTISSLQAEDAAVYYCQQYERLPLSFGGGTKVEIK	En_Gibbs
3.5 nM	6 of 6	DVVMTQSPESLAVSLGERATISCKISQSVLYESRVKNSVAWYQQKAGQPPKLLIYWASTRESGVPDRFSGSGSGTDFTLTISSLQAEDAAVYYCQQYHRLPLSFGGGTKVEIK	Ctrl
260 nM	4 of 6	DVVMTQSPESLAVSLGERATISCHISQTVGMTSHNKNSVAWYQQKAGQPPKLLIYENSTREDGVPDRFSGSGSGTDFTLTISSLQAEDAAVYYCQQYDRLPLSFGGGTKVEIK	En_HC
910 pM	6 of 6	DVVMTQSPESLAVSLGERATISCKLQQSVEYESRNKNSVAWYQQKAGQPPKLLIYSASTRESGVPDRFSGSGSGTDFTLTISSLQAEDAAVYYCQQYHRLPLSFGGGTKVEIK	GP_Gen

Source: Li et al. 2023 (doi:10.1038/s41467-023-39022-2), MIT Lincoln Laboratory and A-Alpha Bio; data file from the FLAb repository.